Experimental data as given in patent publication US20260364181A1, “AKR1C3 Targeted Heterobifunctional Small Molecule Proteolysis Targeting Chimeras” (BOARD OF REGENTS OF THE UNIVERSITY OF NEBRASKA, priority 2022, published 2026).

By UniProt entry, the sequences of proteins in these tests, tags left out.
UniProt P42330, whole entry: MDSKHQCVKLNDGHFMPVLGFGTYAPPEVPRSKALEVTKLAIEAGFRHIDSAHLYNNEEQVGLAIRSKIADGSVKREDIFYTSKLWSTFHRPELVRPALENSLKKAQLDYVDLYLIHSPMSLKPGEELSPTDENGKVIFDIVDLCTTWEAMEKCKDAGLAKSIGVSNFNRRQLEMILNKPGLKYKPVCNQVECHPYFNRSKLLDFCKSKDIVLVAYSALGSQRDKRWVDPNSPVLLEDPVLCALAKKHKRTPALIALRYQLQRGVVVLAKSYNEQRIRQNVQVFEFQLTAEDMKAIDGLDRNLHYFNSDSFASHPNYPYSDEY
UniProt Q04828, whole entry: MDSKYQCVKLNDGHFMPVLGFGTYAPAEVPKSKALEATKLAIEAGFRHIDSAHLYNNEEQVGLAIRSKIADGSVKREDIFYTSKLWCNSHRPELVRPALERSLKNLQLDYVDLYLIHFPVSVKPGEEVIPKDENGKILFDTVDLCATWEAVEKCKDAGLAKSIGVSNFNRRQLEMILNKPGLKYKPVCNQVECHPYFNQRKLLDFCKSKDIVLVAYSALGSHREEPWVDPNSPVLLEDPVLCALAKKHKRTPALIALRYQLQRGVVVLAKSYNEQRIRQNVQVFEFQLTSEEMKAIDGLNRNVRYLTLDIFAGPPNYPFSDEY
UniProt P52895, whole entry: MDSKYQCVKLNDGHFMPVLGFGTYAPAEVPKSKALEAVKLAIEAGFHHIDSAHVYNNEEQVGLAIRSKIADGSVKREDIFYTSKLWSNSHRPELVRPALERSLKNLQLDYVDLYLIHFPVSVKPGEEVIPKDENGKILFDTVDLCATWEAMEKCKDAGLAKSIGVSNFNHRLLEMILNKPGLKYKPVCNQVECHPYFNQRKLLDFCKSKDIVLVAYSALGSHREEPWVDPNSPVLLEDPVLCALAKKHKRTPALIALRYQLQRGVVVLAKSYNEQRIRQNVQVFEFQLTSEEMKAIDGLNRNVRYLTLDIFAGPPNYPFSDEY

Columns and labels:
[1] = molecular target: T1, AKR1C3 (Homo sapiens, UniProt P42330); test: AKR1C3 protein degradation in 22Rv1 prostate cancer cells (Western blot); conditions: in words
Method: (§1) Protein Expression via Western Blot. 22Rv1 cells were seeded in a 6-well plate and incubated overnight. Next day, the cells were treated with varying concentrations of 6 (1 and 10 μM) and 5 (0.5, 1, 10, 50, 100, 250, and 500 nM; 1, 10, and 50 μM) for 24 hours and 5 (1 and 10 nM) at different time points (0, 2, 4, 6, 12, 16, 24, 48, and 72 h). Whole cell lysates were extracted in RIPA lysis buffer containing protease inhibitor and EDTA (Fisher Scientific, PI78440). Protein concentrations in each sample was estimated following BCA assay (Pierce™ BCA protein assay kit, Fisher Scientific, PI23227) as per the manufacturer's protocol. […] Bands were quantified by densitometry using ImageJ software and fold change in AKR1C3, AKR1C1/C2, and ARv7 protein expression was determined based on actin controls. […]
The AKR1C3 degradation effect of PROTAC 5 was screened across a range of concentrations to identify a suitable treatment protocol. 22Rv1 cells were treated with increasing concentrations of […], DMSO or lenalidomide 6 at 1 μM and 10 μM for 24 hours, and the degradation profile was determined by Western blot analysis with antibody for AKR1C3.
(§2) As Compounds 3 and 4 exert their degradation activity at 72 hours (FIG. 2), the time-dependent degradation effect of Compound IA at 0, 2, 4, 6, 12, 16, 24, 48, and 72 h was then determined.

[2] = system: AKR1C1/C2; test: AKR1C1/C2 protein degradation in 22Rv1 prostate cancer cells (Western blot); conditions: 43 nM (IC50 concentration); up to 72 hours; in words
Method: as §1, with “protocol. Proteins were standardized using RIPA lysis buffer with Laemelli SDS sample buffer (Thermo Scientific, AAJ61337AC) and heated at 1000C for 15 minutes. The proteins were resolved on a 4-12% premade gel (Invitrogen, NW04120BOX) at 60-90 V in 20× Bolt™ MES SDS running buffer (Fisher Scientific, B000202) and transferred onto a nitrocellulose membrane (Invitrogen, IB23001) using iBlot 2.” for “protocol.”
as §2

[3] = system: ARv7; test: ARv7 protein degradation in 22Rv1 prostate cancer cells (Western blot); conditions: up to 72 hours, in words
Method: as §1, with “protocol. Proteins were standardized using RIPA lysis buffer with Laemelli SDS sample buffer (Thermo Scientific, AAJ61337AC) and heated at 1000C for 15 minutes. The proteins were resolved on a 4-12% premade gel (Invitrogen, NW04120BOX) at 60-90 V in 20× Bolt™ MES SDS running buffer (Fisher Scientific, B000202) and transferred onto a nitrocellulose membrane (Invitrogen, IB23001) using iBlot 2.” for “protocol.”
as §2

[4] = system: 22Rv1 prostate cancer cells; test: 22Rv1 cell viability (MTS assay); conditions: read-out: IC50 (22Rv1 cell viability), 72 h, mean±standard deviation of two independent experiments
Method: Cell culture and reagents. 22Rv1 cells were purchased from the American Type Culture Collection (ATCC in 2016) and cultured in RPMI 1640 supplemented with 10% Fetal Bovine Serum (FBS, Fisher Scientific, MT35011CV) and Penicillin-Streptomycin Solution (1%, Fisher Scientific, MT30001Cl) at 37 °C in a humidified incubator with 5% carbon dioxide atmosphere. Stock solutions of E3 ligase ligand, lenalidomide 6 (10 mM), PROTAC 5 (25 mM), and AKR1C3 inhibitor 3 (100 mM) were prepared in DMSO.
Cell viability assay. Cells were seeded at a density of 10,000 cells/well in a 96-well plate containing 100 μL growth media per well and were incubated at 37 °C in a humidified incubator with 5% carbon dioxide over ~18-24 hours. Cells were treated with 6, 5, and 3 serially diluted at the indicated concentrations limiting the final DMSO concentration to less than 0.1% and incubated at 37 °C for 72 hours. 10 μL of MTS reagent (CellTiter96®Aqueous One Solution Reagent, Promega, G3580) was added to each well and incubated at the above-mentioned conditions for 4 hours. Absorbance was recorded at OD 490 nm on a Synergy LX multi-mode reader and the viability of cells were plotted as percentage of DMSO control.

[5] = molecular target: T1, AKR1C3; test: AKR1C3 enzyme inhibition (oxidation of S-tetralol); conditions: read-out: IC50 (AKR1C3 inhibition); IC50 concentration used for treatment of 22Rv1 cells
Method: (§3) Enzyme Inhibition Assay. (S)-(+)-1,2,3,4-tetrahydro-1-naphthol (S-tetralol) was purchased from Sigma-Aldrich (St. Louis, MO). Nicotinamide adenine dinucleotide (NAD^+) and nicotinamide adenine dinucleotide phosphate (NADP^+) were purchased from Roche Diagnostics (Indianapolis, IN). Homogeneous recombinant enzymes AKR1C1, AKR1C2, AKR1C3 and AKR1C4 were prepared and purified as previously described.^3 The specific activities of AKR1C3 and AKR1C2 for the oxidation of S-tetralol are 2.0 and 1.5 μmol/(min mg), respectively.
(§4) Assay of Enzyme Activity. The dehydrogenase activities of AKR1C3 and AKR1C2 were determined by measuring the UV absorption of NADH formation at 340 nm using a Beckman DU-640 spectrophotometer. […] After continuously monitoring for 5 min, we recorded the increase in UV absorption using different concentrations of an enzyme to calculate the initial velocity and determine the specific activity of the enzyme.
(§5) IC50 Value Determination. The inhibitory potency for each compound was represented by IC50 values and measured as described before. The IC50 values of [COMPOUND LEFT OUT] and [COMPOUND LEFT OUT] analogues were determined by measuring their inhibition of the NADP+-dependent oxidation of S-tetralol catalyzed by AKR1C3 or AKR1C2. […]

[6] = molecular target: AKR1C1 (Homo sapiens, UniProt Q04828); test: AKR1C1 enzyme inhibition; conditions: read-out: IC50 versus AKR1C1; AKR1C1/2, these two isoforms
Method: as §3, §4, §5

[7] = molecular target: AKR1C2 (Homo sapiens, UniProt P52895); test: AKR1C2 enzyme inhibition (oxidation of S-tetralol); conditions: read-out: IC50 versus AKR1C2; AKR1C1/2, these two isoforms
Method: as §3, §4, §5

SMILES: Cc1ccc(CNC(=O)c2cc(/C=C/C(=O)O)cc(-c3ccccc3)c2)cc1
- degradation of AKR1C3 ([1]; 43 nM (IC50 concentration), up to 72 hours): no evidence of degradation
- time course of AKR1C3 degradation ([1]; 1 μM, 24-72 hours): time-dependent increase in degradation
- degradation of AKR1C1/2 [2]: no evidence of degradation
- degradation of ARv7 ([3]; 43 nM (IC50 concentration)): no evidence of degradation
- time course of ARv7 degradation ([3]; 1 μM): degraded in a time-dependent manner
- IC50 [4]: 40.6 µM
- IC50 [5]: 0.043 µM
- IC50 [6]: > 100 µM
- IC50 [7]: > 100 µM
